Test results published in PubChem BioAssay AID1688 (National Center for Advancing Translational Sciences (NCATS), 2009).
The list shows a part of the results, in another mix than the full data. Results filed as inconclusive are left out. Calls of active or inactive are those of the source. The call rests on the fitted dose curve; in most records, active means well fitted inhibition curve with a large enough effect; inconclusive means small, poorly fitted or top-dose-only effect, or effect the other way; inactive means no such curve, though single readings can be large or run the other way.

assay: qHTS Multiplex Assay to Identify Dual Action Probes in a Cell Model of Huntington: Aggregate Formation (GFP); conditions: PC12 HttQ103-GFP aggregates, Acumen cytometry, 40 h; activity change, negative = inhibition: at the top concentration; further: nearly all actives have a fitted effect of over 60% in size
On the % scale 0 is the no-effect control and ±100 the full control effect; potency means the concentration at half of the fitted maximal effect.

Compound | activity change, negative = inhibition | Potency
O=[N+]([O-])c1ccc(Nc2ccc(Oc3ccc([N+](=O)[O-])cc3[N+](=O)[O-])cc2)c([N+](=O)[O-])c1 | inactive: 5.69% | 
Cc1cc(SC(NC=O)C(Cl)(Cl)Cl)ncn1 (stereo not drawn) | inactive: 16.1% [at 46.1 µM] | 
O=P(Nc1ccccn1)(c1cccc2ccccc12)c1cccc2ccccc12 | inactive: 12.5% | 
CCOC(=O)Nc1cccc([As](=O)(O)O)c1 | inactive: -9.85% | 
Cc1cc(SC(NC(=O)c2ccccc2)C(Cl)(Cl)Cl)nc(C(C)C)n1 (stereo not drawn) | inactive: 19.9% [at 46.1 µM] | 
CCOC(=O)Nc1ccc([As](=O)(O)O)c(O)c1 | inactive: -9.6% | 
CCC(C)N(CC(C)C)C(=S)SC(NC(C)=O)C(Cl)(Cl)Cl (stereo not drawn) | inactive: -13.5% [at 46.1 µM] | 
CCOC(=O)c1ccc(NC(=O)C(C)(CCl)SC)cc1 (stereo not drawn) | inactive: -8.41% | 
O=C(COc1ccccc1)OC1CN2CCC1CC2 (stereo not drawn) | inactive: -14.3% [at 46.1 µM] | 
COP1(=S)c2c(C)nn(CCC#N)c2N=C(c2ccc(F)cc2)N1C (stereo not drawn) | inactive: -8.71% [at 46.1 µM] | 
COc1ccc(N/C(=N/P(=O)(N2CCOCC2)N2CCOCC2)N2CCOCC2)cc1 | inactive: 7.8% [at 46.1 µM] | 
COc1ccc2nc(NP(=O)(c3ccccc3)c3ccccc3)sc2c1 | inactive: 21.1% [at 46.1 µM] | 
COc1cc(I)ccc1[As](=O)(O)O | inactive: 10.9% | 
O=C(OC1CN2CCC1CC2)C12CC3CC(CC(C3)C1)C2 (stereo not drawn) | inactive: 17.2% [at 46.1 µM] | 
Cc1cc(=O)[nH]c(N[N+](=O)[O-])n1 | inactive: 15.4% [at 46.1 µM] | 
CC(C)NC(=O)NP(=O)(Oc1ccccc1)Oc1ccccc1 | inactive: 0.888% [at 46.1 µM] | 
CCN(CC)C(=S)SC(NC=O)C(Cl)(Cl)Cl (stereo not drawn) | inactive: -5.97% [at 46.1 µM] | 
CC(C)c1ccc(OP(=O)(Nc2ccccn2)Oc2ccccc2F)cc1 (stereo not drawn) | inactive: 7.25% | 
Cc1ccc2nc3c(c(C)c2c1)CC(C(Cl)Cl)S3 (stereo not drawn) | inactive: 2.27% [at 46.1 µM] | 
Cc1ccc(OP(=O)(Nc2ccc([N+](=O)[O-])cn2)Oc2ccc(C)cc2)cc1 | inactive: 23.9% | 

Compound | activity change, negative = inhibition | Potency
O=[As](O)(c1ccc(O)cc1)c1ccccc1O | inactive: 13.9% | 
C[As](=O)(O)c1cccc(C(=O)O)c1 | inactive: -9.85% | 
O=[N+]([O-])c1ccc2c(c1)nnn2O | inactive: -9% [at 46.1 µM] | 
CN(C(=O)Cc1ccccc1)[C@@H]1CC[C@]2(CCCO2)C[C@H]1N1CCCC1 | inactive: 5.94% | 
CCOP1(=S)c2c(C)nn(CCC#N)c2N=C(c2ccc(F)cc2)N1C (stereo not drawn) | inactive: 16.3% [at 46.1 µM] | 
O=C(O)COc1ccc([As](=O)(O)O)cc1[N+](=O)[O-] | inactive: 2.83% | 
Nc1ccccc1[As](=O)(O)c1ccccc1 | inactive: -4.3% | 
CS(=O)(=O)c1cc([N+](=O)[O-])c2no[n+]([O-])c2c1 | inactive: 6.62% | 
CCOP1(=S)c2c(C)nn(CCC#N)c2N=C(c2ccccc2F)N1C (stereo not drawn) | inactive: -6.67% [at 46.1 µM] | 
O=P(Nc1nccs1)(Oc1ccccc1)Oc1ccccc1 | inactive: -16.6% [at 46.1 µM] | 
O=P(Nc1nccs1)(c1ccccc1)c1nc2ccccc2s1 (stereo not drawn) |  | active: 11.2 µM
COc1cc(C2NCCC3(OCCO3)C2(C)C)cc(OC)c1OC (stereo not drawn) | inactive: 10.4% [at 46.1 µM] | 
CCOP(=O)(Nc1cccc2ccccc12)OCC | inactive: -11.1% [at 46.1 µM] | 
CCCOP(=S)(Nc1nc(N)cc(=O)[nH]1)OCCC | inactive: -28.1% | 
Nc1cccc2c([As](=O)(O)O)cccc12 | inactive: 15% | 
Cc1cccc(OCC(=O)OC2CN3CCC2CC3)c1 (stereo not drawn) | inactive: 20% [at 46.1 µM] | 
O=[As](O)(c1cccc(O)c1)c1cccc(O)c1 | inactive: 15.5% | 
O=[As](O)(O)c1cccnc1 | inactive: -12.3% | 
COc1cc(C(=O)NCC2(N3CCOCC3)CCCCC2)cc(Cl)c1OC(C)C | inactive: 3.5% [at 46.1 µM] | 
O=C(OC1CN2CCC1CC2)c1ccc(Cl)cc1 (stereo not drawn) | inactive: -12.6% | 

Compound | activity change, negative = inhibition | Potency
O=[As](O)(c1ccccc1Br)c1ccccc1Br | inactive: 1.2% | 
CC(C)/C=N\N=C(\N)N[N+](=O)[O-] | inactive: -0.0519% [at 46.1 µM] | 
Clc1n[nH]nc1-c1nn[nH][15n]1 | inactive: -7.22% [at 46.1 µM] | 
CC(C)(C)C(=O)NC(Sc1ncccn1)C(Cl)(Cl)Cl (stereo not drawn) | inactive: 0.597% | 
CCOP(=O)(Nc1ccc(C)cn1)OCC | inactive: -5.95% | 
O=P1(Nc2ccccn2)COc2ccccc2OC1 | inactive: -1.37% [at 46.1 µM] | 
O=[As](O)(c1cccs1)c1cccs1 | inactive: -17% | 
Cc1ccc(OCC(=O)OC2CN3CCC2CC3)cc1 (stereo not drawn) | inactive: 12.2% [at 46.1 µM] | 
Nc1cccc([As](=O)(O)c2ccccc2)c1 | inactive: -13.9% | 
O=P1(Nc2ncccn2)COc2ccccc2OC1 | inactive: -7.98% [at 46.1 µM] | 
O=C(/C=C/c1ccccc1)OC1CN2CCC1CC2 (stereo not drawn) | inactive: 7.84% | 
CN(C)C1(CNC(=O)c2ccc(S(C)(=O)=O)cc2)CCCCC1 | inactive: -11% | 
Cc1nn(-c2ccccc2)c2c1P(=O)(N1CCOCC1)N(C)C(c1ccccc1)=N2 (stereo not drawn) | inactive: 4.4% [at 46.1 µM] | 
CC1CCC(C(C)C)C(OP(=O)(Nc2ccccn2)c2ccccc2)C1 (stereo not drawn) | inactive: -27.5% [at 46.1 µM] | 
C(Cc1nn[nH]n1)Cc1nn[nH]n1 | inactive: 2.09% [at 46.1 µM] | 
Nc1ccc([As](=O)(O)c2ccc([N+](=O)[O-])cc2)cc1 | inactive: -9.7% | 
O=C(OC1CN2CCC1CC2)c1cccc(Cl)c1 (stereo not drawn) | inactive: -7.03% [at 46.1 µM] | 
O=[N+]([O-])c1ncn(CCn2cnc([N+](=O)[O-])n2)n1 | inactive: -12.7% | 
